# Yeast mating assay 2: variants of the scFv Ab-95

From the AlphaSeq antibody data of Engelhart et al. 2022 (doi:10.1038/s41597-022-01779-4), copy in the FLAb collection.

All variants were tested on one target, the spike HR2 peptide PDVDLGDISGINAS (SARS-CoV-2).

Ab-95 is the parent antibody, in scFv form: VH, then three GGGGS repeats, then VL. The heavy chain is unchanged in all variants.
VH: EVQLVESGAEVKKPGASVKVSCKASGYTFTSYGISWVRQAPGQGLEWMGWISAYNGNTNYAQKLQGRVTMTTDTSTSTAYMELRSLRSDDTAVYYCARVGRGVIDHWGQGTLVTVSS
VL: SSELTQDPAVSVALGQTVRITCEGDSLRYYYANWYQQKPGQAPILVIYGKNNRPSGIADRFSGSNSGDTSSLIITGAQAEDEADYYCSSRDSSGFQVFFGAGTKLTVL

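Phage display of a naive human antibody library on the peptide gave the parent. Library AAYL52 holds single substitutions and randomly drawn double and triple substitutions in the CDRs. The assay is AlphaSeq: two haploid yeast populations carry antibody and antigen on their surface. Mating (16 h, 30 °C) was followed by selection of diploids and sequencing of their barcodes. The ratio of observed to expected reads was calibrated, replicate by replicate, on BCL2-family standards whose Kd was known from biolayer interferometry. Mating was done three times.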

Changes read parent residue, position, new residue, counted from the first residue of the VL shown.
Every variant below is changed at F95 of the VL (sequential numbering).
Each Kd is an estimate from the mating assay, the geometric mean of the replicates in which the pair was seen; lower is stronger.
A pair that was not seen in any replicate is written "no signal"; this usually means weak binding, but a binder can also be missed.
For reference, the parent read 200 nM as the reference entry and 180 nM as a member of this library.

The variant N33Q+D91T+F95L showed 15 µM (2 of 3 replicates).
The variant F95A+F98I showed 33 µM (3 of 3 replicates).
The variant N33I+F95A+V97R showed no signal (0 of 3 replicates).
The variant S26M+A32G+F95S showed 16 µM (2 of 3 replicates).
The variant Y31W+F95M showed 1.2 µM (3 of 3 replicates).
The variant P54C+F95L+Q96H showed 2.1 µM (3 of 3 replicates).
The variant N51P+P54I+F95S showed 71 µM (2 of 3 replicates).
The variant E23V+N51H+F95Q showed 1.9 µM (3 of 3 replicates).
The variant G24Q+A32G+F95M showed no signal (0 of 3 replicates).
The variant N33A+G94W+F95H showed 29 µM (2 of 3 replicates).
The variant G49C+K50M+F95I showed 17 µM (2 of 3 replicates).
The variant N52I+F95M+F98W showed 220 nM (3 of 3 replicates).
The variant R90T+D91W+F95D showed 3.2 µM (2 of 3 replicates).
The variant N51H+R53Y+F95S showed 4.6 µM (3 of 3 replicates).
The variant P54K+R90E+F95C showed 11 µM (2 of 3 replicates).
The variant L27Y+R53C+F95M showed 210 µM (1 of 3 replicates).
The variant R53M+S88N+F95H showed no signal (0 of 3 replicates).
The variant D25S+F95T+Q96F showed 140 nM (3 of 3 replicates).
The variant D91E+F95R+Q96A showed 920 nM (3 of 3 replicates).
The variant N33L+G49M+F95K showed no signal (0 of 3 replicates).
The variant K50Y+P54E+F95C showed 65 µM (1 of 3 replicates).
The variant S55R+G94L+F95T showed 980 nM (3 of 3 replicates).
The variant N33K+R90M+F95M showed no signal (0 of 3 replicates).
The variant G24K+S92F+F95Y showed no signal (0 of 3 replicates).
The variant K50S+S55F+F95S showed 2.0 µM (2 of 3 replicates).
The variant S26M+K50Q+F95L showed 2.1 µM (3 of 3 replicates).
The variant S93K+F95C showed 950 nM (3 of 3 replicates).
The variant L27Y+S88I+F95Q showed 8.1 µM (1 of 3 replicates).
The variant S89C+S92D+F95M showed 240 nM (3 of 3 replicates).
The variant S89M+S93Y+F95E showed 3.3 µM (3 of 3 replicates).
The variant S93I+F95G showed 770 nM (3 of 3 replicates).
The variant P54Q+F95K showed 2.8 µM (1 of 3 replicates).

The opening 5 entries, copied out:

Variant N33Q+D91T+F95L showed 15 µM (2 of 3 replicates).
Variant F95A+F98I showed 33 µM (3 of 3 replicates).
Variant N33I+F95A+V97R showed no signal (0 of 3 replicates).
Variant S26M+A32G+F95S showed 16 µM (2 of 3 replicates).
Variant Y31W+F95M showed 1.2 µM (3 of 3 replicates).

Background: pairings of library AAYL52 with three empty control strains gave a value in 28% of cases (median 8.2 µM, 5th percentile 800 nM). Values in that range, when seen in few replicates, are hard to tell from nonspecific mating.